The term IC50 denotes the concentration at which inhibition is half-maximal. Low values mean greater potency, high ones weaker potency.

Chains of the proteins cited; added tags and fusions are not shown.
UniProt P21397, whole entry: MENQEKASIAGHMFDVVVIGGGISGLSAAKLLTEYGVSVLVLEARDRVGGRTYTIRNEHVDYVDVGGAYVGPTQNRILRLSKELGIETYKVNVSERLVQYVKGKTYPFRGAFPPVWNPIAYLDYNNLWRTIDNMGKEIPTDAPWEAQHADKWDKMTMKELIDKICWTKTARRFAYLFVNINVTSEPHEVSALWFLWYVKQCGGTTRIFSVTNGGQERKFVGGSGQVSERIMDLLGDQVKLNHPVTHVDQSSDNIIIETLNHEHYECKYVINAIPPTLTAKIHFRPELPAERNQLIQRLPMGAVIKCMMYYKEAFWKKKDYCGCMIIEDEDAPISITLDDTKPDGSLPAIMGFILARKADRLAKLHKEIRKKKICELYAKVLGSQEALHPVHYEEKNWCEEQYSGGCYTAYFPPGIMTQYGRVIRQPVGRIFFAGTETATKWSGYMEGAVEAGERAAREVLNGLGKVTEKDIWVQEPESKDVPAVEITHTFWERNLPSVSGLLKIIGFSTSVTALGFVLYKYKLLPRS
UniProt P27338, whole entry: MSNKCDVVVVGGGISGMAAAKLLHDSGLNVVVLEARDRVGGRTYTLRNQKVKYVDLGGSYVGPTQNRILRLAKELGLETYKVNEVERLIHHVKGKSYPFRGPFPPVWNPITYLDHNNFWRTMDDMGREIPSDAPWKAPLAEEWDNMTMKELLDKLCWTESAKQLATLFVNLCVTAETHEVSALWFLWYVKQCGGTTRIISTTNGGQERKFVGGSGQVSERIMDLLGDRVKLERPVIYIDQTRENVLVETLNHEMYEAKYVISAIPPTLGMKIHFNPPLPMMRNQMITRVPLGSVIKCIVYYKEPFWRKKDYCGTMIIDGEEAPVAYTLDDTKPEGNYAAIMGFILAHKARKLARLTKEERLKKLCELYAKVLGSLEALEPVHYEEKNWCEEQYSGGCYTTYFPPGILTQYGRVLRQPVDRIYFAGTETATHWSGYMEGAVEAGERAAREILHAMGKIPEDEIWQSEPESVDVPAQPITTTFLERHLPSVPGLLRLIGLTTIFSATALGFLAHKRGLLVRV

We go through one compound from patent US20260364028A1, “COMBINATION TREATMENTS FOR DEPRESSION AND OTHER DISORDERS” (NEURAWELL THERAPEUTICS, priority 2023, published 2026).

The target of one test is T1, Monoamine Oxidase MAO-A (Homo sapiens, UniProt P21397).
T1 construct: host or cells: insect cells (recombinant)
Description: Monoamine oxidase MAO-A inhibition enzyme assay (kynuramine, spectrofluorimetric). Type of test: biochemical.

Another test addresses T2, Monoamine Oxidase MAO-B (Homo sapiens, UniProt P27338).
T2 construct: host or cells: insect cells (recombinant)
Description: Monoamine oxidase MAO-B inhibition enzyme assay (kynuramine, spectrofluorimetric). The class given is biochemical.

For `NNCCc1ccccc1` [Phenelzine], the results for the IC50 against Monoamine Oxidase MAO-A and against Monoamine Oxidase MAO-B were 15 nM and 18.9 nM, respectively.
